From ChEMBL document CHEMBL2169767 (J Med Chem, 2012)

Sequences of proteins named here, by UniProt entry; tags and fusion partners are left off.
UniProt Q92847, whole entry: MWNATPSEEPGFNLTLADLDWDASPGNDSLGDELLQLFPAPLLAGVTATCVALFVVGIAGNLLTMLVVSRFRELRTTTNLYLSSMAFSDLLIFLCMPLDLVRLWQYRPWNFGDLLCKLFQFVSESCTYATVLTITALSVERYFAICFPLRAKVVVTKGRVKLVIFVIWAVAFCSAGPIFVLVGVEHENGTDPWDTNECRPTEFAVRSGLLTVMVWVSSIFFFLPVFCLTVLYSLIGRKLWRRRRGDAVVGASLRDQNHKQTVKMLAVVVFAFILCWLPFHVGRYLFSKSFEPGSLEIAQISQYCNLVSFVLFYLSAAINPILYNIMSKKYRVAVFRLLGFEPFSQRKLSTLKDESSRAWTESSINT

Assays:
[1] = molecular target: T1, Growth hormone secretagogue receptor type 1 (Homo sapiens, UniProt Q92847); test: Displacement of [125I]-His-ghrelin from human ghrelin receptor expressed in COS7 cells incubated for 75 mins by scintillation counting based assay; format: cell-based, COS-7
[2] = molecular target: T1, Growth hormone secretagogue receptor type 1; test: Activation of human ghrelin receptor expressed in COS 7 cells using [2-3H]myo-inositol by inositol triphosphate turnover assay; format: functional, cell-based
Procedure, shortened: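 Stimulated with seven to nine peptide concentrations, stopped by aspirating medium. Lysate supernatant purified on anion-exchange resin. Emax = difference between constitutive activity and activity at maximal peptide effect; EC50 = half-maximal concentration.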

[3] = molecular target: T1, Growth hormone secretagogue receptor type 1; test: Ratio of EC50 of ghrelin to EC50 of compound at human ghrelin receptor expressed in COS 7 cells using [2-3H]myo-inositol by inositol triphosphate turnover assay; format: functional, cell-based

SMILES: CC(C)C[C@H](NC(=O)[C@H](CC(C)C)NC(=O)[C@@H](Cc1csc2ccccc12)NC(=O)[C@H](Cc1ccccc1)NC(=O)[C@@H](Cc1c[nH]c2ccccc12)NC(=O)[C@@H](N)CCCCN)C(N)=O
- Ki [1]: 31.3 nM
- EC50 [2]: > 1000 nM
- Ratio EC50 [3]: > 700
